Experimental data published in patent US20220079924A1, “GLUCOCORTICOID RECEPTOR MODULATORS” (ORIC Pharmaceuticals, Inc., priority 2018, published 2022).

Protein sequences, listed by entry. Tags and fused reporters are not part of them.
UniProt P04150, whole entry: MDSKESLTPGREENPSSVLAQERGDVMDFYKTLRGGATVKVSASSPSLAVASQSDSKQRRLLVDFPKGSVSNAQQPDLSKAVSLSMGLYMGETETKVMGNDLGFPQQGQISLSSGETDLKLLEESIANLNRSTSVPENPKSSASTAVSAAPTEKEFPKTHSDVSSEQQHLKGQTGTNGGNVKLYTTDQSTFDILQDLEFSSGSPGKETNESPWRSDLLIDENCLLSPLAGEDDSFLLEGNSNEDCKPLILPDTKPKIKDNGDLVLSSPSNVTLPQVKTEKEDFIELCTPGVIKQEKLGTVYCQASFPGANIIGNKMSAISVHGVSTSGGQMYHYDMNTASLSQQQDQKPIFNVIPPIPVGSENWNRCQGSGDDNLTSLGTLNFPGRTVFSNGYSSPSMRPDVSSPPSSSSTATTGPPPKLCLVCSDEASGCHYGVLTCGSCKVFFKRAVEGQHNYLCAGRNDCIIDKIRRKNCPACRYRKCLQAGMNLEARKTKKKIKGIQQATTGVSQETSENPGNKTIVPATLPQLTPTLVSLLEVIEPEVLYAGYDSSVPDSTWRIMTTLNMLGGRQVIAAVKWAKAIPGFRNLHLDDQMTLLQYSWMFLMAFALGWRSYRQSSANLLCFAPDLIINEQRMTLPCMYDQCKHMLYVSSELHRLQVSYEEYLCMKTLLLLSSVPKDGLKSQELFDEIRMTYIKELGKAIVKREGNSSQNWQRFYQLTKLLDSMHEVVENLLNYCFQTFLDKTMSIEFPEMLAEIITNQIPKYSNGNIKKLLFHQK

Target: GR (Homo sapiens, UniProt P04150)
Experiment: In Vitro GR Luciferase Reporter Assay (antagonist assay)
Settings: read-out: GR IC50, CHO-K1-GR-MMTV-Luc reporter cells, 10 nM Dexamethasone, 18-24 hours
Protocol: Example A: In Vitro GR Luciferase Reporter Assay
Cell Line: CHO-K1-GR-MMTV-Luc reporter cells
Culture Media: DMEM (with phenol red)+10% FBS
Assay Media: DMEM (without phenol red)+10% CSS
Culture CHO-K1-GR-MMTV-Luc reporter cells in T175 flasks in Culture Media at conditions less than 90% confluence.
Using Bravo (Agilent) liquid handler:
200× DMSO 1:3 serial dilutions of control and test compounds in 96-well non-sterile V bottom plate in DMSO, 12 points for each compound were prepared.
Prepared 5× compound serial dilutions: Add 97.5 μL/well of Assay Media into 96-well non-sterile V bottom plate then added 2.5 ul of 200× concentration of compounds and mix well.
Seeded cells for Antagonist Assay: 5200 CHO-K1-GR-MMTV-Luc reporter cells were seeded in Greiner #781080 flat clear bottom 384-well white TC plate in 20 ul of Assay Media containing 12.5 nM Dexamethasone (final concentration=10 nM). […]
Read plates: Equilibrate appropriate amount of Promega OneGlo luciferase reagent to room temperature. Remove the plates from incubator and add 25 uL of OneGlo reagent/well by Bravo and read the plates on Tecan Spark plate reader within 15 minutes.
The ability of the compounds disclosed herein to inhibit GR activity was quantified and the respective IC50 value was determined. […]

In the case of `Cn1cnc(S(=O)(=O)N(C2CC2)[C@H]2CCC3=Cc4c(cnn4C4CCOCC4)C[C@]3(C(=O)c3cc(C(F)(F)F)ccn3)C2)n1`, the IC50 is reported as 100 to 1000 nM.
